Ab-91 heavy chain CDR variants: yeast mating affinities

Reference: Engelhart et al. 2022, doi:10.1038/s41597-022-01779-4. File: FLAb, binding data.

Antigen: PDVDLGDISGINAS, a 14-residue peptide of the SARS-CoV-2 spike HR2 region.

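The starting antibody came from a phage panning campaign against this peptide. In library AAYL51, one, two or three CDR residues were substituted; doubles and triples were drawn at random. The scFvs were displayed on barcoded MATa yeast, the peptide on MATalpha yeast. Pairs that bind mate more often; barcode pairs of the diploids are counted by sequencing. Scores were corrected for input abundance and mapped to Kd with protein pairs of known affinity run in the same pool. There are three technical replicates.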

The variants keep the light chain, the linker and the frameworks of Ab-91 (scFv order VL, the linker GGGGSGGGGSGGGGS, VH).
VL: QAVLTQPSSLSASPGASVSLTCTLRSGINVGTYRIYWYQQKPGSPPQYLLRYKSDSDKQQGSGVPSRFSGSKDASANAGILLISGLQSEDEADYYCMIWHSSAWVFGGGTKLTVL
VH: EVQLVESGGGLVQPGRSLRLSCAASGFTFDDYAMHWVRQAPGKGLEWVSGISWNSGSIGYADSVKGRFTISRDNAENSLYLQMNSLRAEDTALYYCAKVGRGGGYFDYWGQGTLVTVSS

Variants are written as CDR1, CDR2 and CDR3 of the heavy chain (limits as in the source). Parent: GFTFDDYAMH, GISWNSGSIGYADSVK, VGRGGGYFDY. Scale: log10 of Kd in nM, estimated from mating counts; low values are strong binders. The mean shown is taken over the replicates in which the pair was detected. Where no diploid with the target was found in that replicate, the entry reads "nd": below detection, most likely a poor binder, though not proof of it. Empty control strains, which show no peptide, gave a signal in 21% of pairings with library AAYL51; the median was 4.54 and 95% of these signals were weaker than 3.26. No background was subtracted. The control count says in how many pairings with the empty strains this scFv gave a signal, with their mean in brackets. For reference, the parent read 1.86 as the reference entry and 0.88 as a member of this library.

CDR-H1 | CDR-H2 | CDR-H3 | log10 Kd, replicates | log10 Kd (nM), mean | control signals
GFTFDDYYWH | GISWNSGLIGYADSVK | VGRGGGYFDY | nd / 4.99 / nd | 4.99 | 1 of 9 (4.40)
GFTFDDYAMH | GQSWNSISIGYADSVK | VGREGGYFDY | nd / nd / 4.34 | 4.34 | 2 of 9 (4.80)
GFTFDDYAMH | GISWNSKSIGYADSVK | VGHGGPYFDY | 2.18 / 2.07 / 2.56 | 2.27 | 1 of 9 (3.79)
GPTFDDDAMH | GISWNSGSIGYADSVE | VGRGGGYFDY | nd / nd / nd | nd | 0 of 9
GFTFDDYAMH | GRSWNSGSIGYNDSVK | VGRGGGYYDY | nd / nd / 4.76 | 4.76 | 2 of 9 (4.54)
GFTFDDYAMH | DISWESGSIGYADCVK | VGRGGGYFDY | nd / nd / nd | nd | 0 of 9
GFPCDDYAMH | GISWNSGSIGYADSVK | VGMGGGYFDY | nd / nd / nd | nd | 3 of 9 (3.85)
GFTFDDYAMH | GVIWNSGSIGYKDSVK | VGRGGGYFDY | nd / nd / nd | nd | 0 of 9
GFTFDDYAMK | GISWNSGSIGYATSVK | VGRGNGYFDY | nd / nd / nd | nd | 0 of 9
GFTFDDYAMH | GISWNSGSIGYADSWK | VIRGGGYFDY | 4.33 / 3.98 / 3.95 | 4.08 | 5 of 9 (4.79)
GFMFDDYAMH | GISWNSGSIGYADSVK | VGRGGGYFDY | 1.59 / 1.60 / 1.20 | 1.46 | 2 of 9 (5.96)
GHKFDDYAMH | GISWNHGSIGYADSVK | VGRGGGYFDY | nd / nd / nd | nd | 0 of 9
GFTFGDYAMH | GISWNSGSCGYADSVK | VGRGGGYFDY | 1.54 / 1.07 / 1.29 | 1.30 | 0 of 9
GFTCDDYAMH | GISWNVRSIGYADSVK | VGRGGGYFDY | 3.31 / nd / nd | 3.31 | 1 of 9 (4.92)
GFTFDDYAMQ | GISWNSGSIGYADSVK | VFRGGGYQDY | 5.38 / 4.63 / 5.20 | 5.07 | 3 of 9 (4.80)
GFTFDDYAMV | GISPNSGSIGYADSVK | VGPGGGYFDY | 4.76 / nd / nd | 4.76 | 2 of 9 (4.57)
GFTFDDYAMH | GISWNSGSIGHAYSVK | VGRRGGYFDY | 4.69 / nd / nd | 4.69 | 1 of 9 (5.24)
GFTFDDYAMH | GISWNSGSIGFADSVK | VGRGYGYFDY | nd / 4.66 / nd | 4.66 | 1 of 9 (4.16)
GFTFDDYAMH | GISWNSGSIGAADSVM | VGRGGGYFDY | 2.91 / 2.56 / 2.22 | 2.57 | 1 of 9 (3.79)
GFTFDDRAMH | GISWNSVSIGYHDSVK | VGRGGGYFDY | nd / nd / 3.46 | 3.46 | 1 of 9 (4.10)
GFGFDDYAMH | GISWKSGSIGYADSVK | VGRQGGYFDY | nd / 4.85 / 4.30 | 4.58 | 2 of 9 (4.68)
GFMFDDYAMH | GISWNSGSFGYADSVK | VGRGGGYFAY | nd / nd / nd | nd | 0 of 9
GDTFDDYAMH | GISWNSGSIGYADSVK | VGRGGTYFDY | nd / nd / nd | nd | 0 of 9
GFTFDDYAMH | GISWRSMSIGYADTVK | VGRGGGYFDY | nd / nd / nd | nd | 0 of 9
GYTFDDYAEH | GISWNSGSIGYADSVK | VGRGGGYWDY | 2.12 / 2.08 / 2.11 | 2.10 | 2 of 9 (4.55)
GFTADDYAMH | GISWNSGSIGYADSVK | RGRGGGYFDY | nd / nd / nd | nd | 0 of 9
GFTFDDYAME | GQSWNSGSIGYADSVK | VGRGGGYFDY | nd / nd / nd | nd | 0 of 9
GLCFDDYAMH | GISWNSGSIGYWDSVK | VGRGGGYFDY | nd / nd / nd | nd | 0 of 9
GNLFDDYAMH | GISWNSGSIGYADSVK | VGRGGGYFDY | 4.20 / 4.47 / 4.13 | 4.27 | 3 of 9 (4.26)
GFTFDVYAMQ | GISWNSGTIGYADSVK | VGRGGGYFDY | nd / nd / nd | nd | 0 of 9
GFTFDDYAMH | GISWKSGSIGYADSVK | VGVGGGYFDM | nd / nd / nd | nd | 1 of 9 (3.62)
GFTFDDYAMH | GISWNSGSLGYADSVK | VGRGGGYFDY | 1.46 / 1.71 / 0.95 | 1.37 | 1 of 9 (2.76)
GFTFIDYAMH | GISWNSGSIGYAMSVV | VGRGGGYFDY | nd / 5.66 / nd | 5.66 | 4 of 9 (3.86)
GFTFDDYAMH | GISWISGSIGRADSVK | VGRGGTYFDY | nd / 3.83 / 2.11 | 2.97 | 0 of 9
YFTTDDYAMH | GISWNSGSIGYADSVM | VGRGGGYFDY | nd / nd / nd | nd | 1 of 9 (4.43)
GGTNDDYAMH | GISWMSGSIGYADSVK | VGRGGGYFDY | 4.36 / nd / 4.50 | 4.43 | 4 of 9 (3.79)
GFTFDDYAMH | GISWNIGSIGYADSVK | VGRGLGYFDY | 3.18 / nd / 3.07 | 3.12 | 0 of 9
GFTFDDYSMH | GILWNSGSIGYADSVK | VGRYGGYFDY | 4.38 / nd / nd | 4.38 | 2 of 9 (4.86)
GFTFDDYAMH | GQSWNSGSIGAADSVK | VGRGGRYFDY | nd / nd / nd | nd | 2 of 9 (3.80)
GFTFDDAAMH | GISWNSGSIPYADSVK | VGRGGGPFDY | nd / 4.21 / nd | 4.21 | 6 of 9 (4.57)
GFTDDDYAMH | GISWNFGSIGYADSVK | VGRGGGEFDY | nd / nd / nd | nd | 0 of 9
GFTFDDYAMH | LISWNSLSIGYADSVK | VGRGGGYFDY | nd / nd / nd | nd | 0 of 9
SFTFDDYAYH | GISWNSGSIGYADSVK | PGRGGGYFDY | 2.23 / 2.21 / 1.96 | 2.13 | 1 of 9 (4.54)
TFTFDDYAMK | GISWNSGSAGYADSVK | VGRGGGYFDY | 5.06 / nd / nd | 5.06 | 1 of 9 (5.86)
GFTFDDFAMH | DISWTSGSIGYADSVK | VGRGGGYFDY | nd / 3.69 / nd | 3.69 | 4 of 9 (4.23)
PFTFDDYAMH | GQSWNSGSAGYADSVK | VGRGGGYFDY | nd / 5.98 / nd | 5.98 | 3 of 9 (4.07)
GFTFDDYAMH | GISWNSGSIGYADSVN | VAMGGGYFDY | nd / nd / nd | nd | 1 of 9 (4.21)
GFTFDDYAMH | YISWNSGSIGYEDSVK | VGRGGVYFDY | 5.55 / 4.63 / nd | 5.09 | 1 of 9 (3.30)
GMTFDDYAMH | GISWNGGSIGYADSVK | PGRGGGYFDY | 3.67 / 4.20 / 3.18 | 3.68 | 5 of 9 (3.83)
GFTFDPYAMH | GISWNSGSIGWADSVK | VGRGGGQFDY | nd / nd / 4.28 | 4.28 | 3 of 9 (4.79)

Extract of 7 entries:

CDR-H1 | CDR-H2 | CDR-H3 | log10 Kd, replicates | log10 Kd (nM), mean | control signals
GFTFDDYAMH | GISWISGSIGRADSVK | VGRGGTYFDY | nd / 3.83 / 2.11 | 2.97 | 0 of 9
GPTFDDDAMH | GISWNSGSIGYADSVE | VGRGGGYFDY | nd / nd / nd | nd | 0 of 9
GFTFDDYAMH | LISWNSLSIGYADSVK | VGRGGGYFDY | nd / nd / nd | nd | 0 of 9
GLCFDDYAMH | GISWNSGSIGYWDSVK | VGRGGGYFDY | nd / nd / nd | nd | 0 of 9
GFTFDDYAMH | GQSWNSISIGYADSVK | VGREGGYFDY | nd / nd / 4.34 | 4.34 | 2 of 9 (4.80)
GFTFDDYAMH | GISWNSGSIGYADSVN | VAMGGGYFDY | nd / nd / nd | nd | 1 of 9 (4.21)
GFTFIDYAMH | GISWNSGSIGYAMSVV | VGRGGGYFDY | nd / 5.66 / nd | 5.66 | 4 of 9 (3.86)